# Experimental data: ChEMBL document CHEMBL4130621, “Structure-Activity Relationship Studies with Tetrahydroquinoline Analogs as EPAC Inhibitors” (ACS Med Chem Lett, 2017)
# Species: Homo sapiens
# Experiment: Selectivity ratio of IC50 for recombinant human GST-tagged EPAC2 expressed in Escherichia coli Rosetta 2(DE3) to IC50 for recombinant human GST-tagged EPAC1 (149 to 881 residues) expressed in Escherichia coli Rosetta 2(DE3)
structure (smiles),measurement,value
C[C@@H]1CCc2c(cc(Br)c(F)c2Br)N1C=O,Ratio IC50,7
